The entries are a selection whose mix differs from that of the whole data set. Calls of active or inactive are those of the source.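 How the source made its calls: active means inhibition above about 30% (limit read from the data); inactive means the rest.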
Target: Neutrophil cytosol factor 1 (Homo sapiens) (UniProt P14598)
Assay: blockers of p47phox binding to p22phox – biochemical, uHTS, NADPH oxidase regulatory subunit, primary screen (AID 1274);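 further: 0% = p47phox with labelled peptide and 100% = labelled peptide alone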
Details: p47phox/p22phox peptide binding, fluorescence polarization, 2 h; at 24.7 µM; active compounds read high

Amino acid sequences for entries named in this document (tags omitted).
UniProt P14598, whole entry: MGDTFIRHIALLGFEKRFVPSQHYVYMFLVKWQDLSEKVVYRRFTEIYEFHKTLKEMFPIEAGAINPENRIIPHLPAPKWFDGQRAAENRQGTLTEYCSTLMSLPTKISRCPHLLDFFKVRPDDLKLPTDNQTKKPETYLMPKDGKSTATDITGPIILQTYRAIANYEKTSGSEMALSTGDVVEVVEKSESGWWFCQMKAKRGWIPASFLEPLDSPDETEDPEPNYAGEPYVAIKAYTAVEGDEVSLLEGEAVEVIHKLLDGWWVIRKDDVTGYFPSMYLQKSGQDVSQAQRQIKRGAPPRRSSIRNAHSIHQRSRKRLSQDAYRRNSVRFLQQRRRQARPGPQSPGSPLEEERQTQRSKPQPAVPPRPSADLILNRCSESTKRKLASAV

| Structure (SMILES) | inhibition |
| --- | --- |
| N#Cc1ccc(C(=O)NCC2(N3CCCCC3)CCCCC2)cc1 | inactive: -9.14% |
| c1ccc(CN2CCC(Nc3ccccc3)CC2)cc1 | inactive: -8.67% |
| COc1ccc(C(=O)NCC2(N3CCOCC3)CCCCC2)cc1OC | inactive: -0.76% |
| N/C(=N\O)c1c(N)no[n+]1[O-] | inactive: -4.61% |
| O=C(OC1CN2CCC1CC2)C1c2ccccc2C=Cc2ccccc21 (centres undefined) | inactive: -1.47% |
| CCOc1ncccc1C(=O)NCC1(N2CCOCC2)CCCCC1 | inactive: -4.84% |
| CC(C)(C)OC(=O)N1CCC(Nc2ccccc2)CC1 | inactive: -14.9% |
| COc1cc(OC)cc(C(=O)NCC2(N3CCOCC3)CCCCC2)c1 | inactive: 2.54% |
| CCC(CO)(C(=O)OC1CN2CCC1CC2)c1ccccc1 (centres undefined) | inactive: -10.4% |
| CCCOc1ccc(C)cc1CN(CCCl)CCCl | inactive: -9.68% |
| Fc1ccccc1NC1CCN(Cc2ccccc2)CC1 | inactive: 4.4% |
| CCN1CCC(Nc2cccc(F)c2)CC1 | inactive: -2.94% |
| CN(C)c1ccc(C(=O)NCC2(N3CCCCC3)CCCCC2)cc1 | inactive: -18.6% |
| CCOc1ccc(C)cc1CN(CCCl)CCCl | inactive: -2.22% |
| COc1ccc(NC2CCN(CCc3ccccc3)CC2)c(OC)c1 | inactive: -7.36% |
| Cc1ccc(OCC(C)C)c(CN(CCCl)CCCl)c1 | inactive: -3.4% |
| COc1ccc(C(=O)NCC2(N3CCCCC3)CCCCC2)c(OC)c1OC | inactive: -3.91% |
| O=C(NCC1(N2CCOCC2)CCCCC1)c1cc2ccccc2o1 | inactive: -5.54% |
| O=C(OC1CN2CCC1CC2)C1c2ccccc2Oc2ccccc21 (centres undefined) | inactive: -3.88% |
| N#CC1(Nc2ccccc2)CCN(Cc2ccccc2)CC1 | inactive: 7.01% |
| CCOC(=O)N1CCC(Nc2ccc(OC)cc2)CC1 | inactive: -8.35% |
| CC(C)c1ccc(NC2CCN(C(=O)OC(C)(C)C)CC2)cc1 | inactive: 6.8% |
| CN(C)c1cccc(C(=O)NCC2(N3CCCCC3)CCCCC2)c1 | inactive: 0.95% |
| COc1ccc(CN(CCCl)CCCl)cc1Cl | inactive: -0.96% |
| N#CC1(Nc2ccccc2)CCN(CCc2ccccc2)CC1 | inactive: -11.4% |
| O=C(NCC1(N2CCCCC2)CCCCC1)c1cccc([N+](=O)[O-])c1 | inactive: -10.3% |
| O=C(NCC1(N2CCOCC2)CCCCC1)c1cc(=O)[nH]c2ccccc12 | inactive: 2.89% |
| CN1CCN(CCOC(=O)C(O)(c2ccccc2)c2ccccc2)CC1 | inactive: 3.35% |
| COc1ccc(NC2CCN(C(=O)OC(C)(C)C)CC2)cc1 | inactive: -6.35% |

Reference: PubChem BioAssay AID1274 (Emory University Molecular Libraries Screening Center, 2008)
